Our source for the IC50 and Ki values is ChEMBL document CHEMBL1125363, “Novel piperidine sigma receptor ligands as potential antipsychotic drugs” (J Med Chem, 1992).

Amino acid sequences for entries named in this document (tags omitted).
UniProt P61168, whole entry: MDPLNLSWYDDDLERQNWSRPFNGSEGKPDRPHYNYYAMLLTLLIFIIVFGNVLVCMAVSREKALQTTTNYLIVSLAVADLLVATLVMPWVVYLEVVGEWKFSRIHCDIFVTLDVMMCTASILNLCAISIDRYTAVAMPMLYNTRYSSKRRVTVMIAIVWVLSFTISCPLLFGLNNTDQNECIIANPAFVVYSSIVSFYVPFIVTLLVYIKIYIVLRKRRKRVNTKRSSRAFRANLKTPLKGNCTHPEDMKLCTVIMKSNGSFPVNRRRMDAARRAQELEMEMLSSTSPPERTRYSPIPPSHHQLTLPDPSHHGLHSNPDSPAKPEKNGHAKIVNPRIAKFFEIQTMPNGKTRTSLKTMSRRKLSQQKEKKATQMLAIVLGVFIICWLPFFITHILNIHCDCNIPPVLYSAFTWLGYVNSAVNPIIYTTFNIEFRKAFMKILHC
UniProt O55242, whole entry: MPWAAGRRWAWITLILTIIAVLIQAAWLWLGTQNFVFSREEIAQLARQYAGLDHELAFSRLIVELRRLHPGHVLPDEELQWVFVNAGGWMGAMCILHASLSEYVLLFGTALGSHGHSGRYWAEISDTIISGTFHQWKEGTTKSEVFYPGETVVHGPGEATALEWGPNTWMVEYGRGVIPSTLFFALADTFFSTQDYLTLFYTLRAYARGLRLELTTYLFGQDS

Assay [1] has as its target D(2) dopamine receptor (Mus musculus, UniProt P61168). Briefly: In vitro binding affinity towards dopamine receptor D2.
Assay [2] addresses Sigma non-opioid intracellular receptor 1 (Mus musculus, UniProt O55242). Briefly: In vitro binding affinity for the mouse sigma opioid receptor.

The term IC50 denotes the concentration that inhibits the measured activity by half. Low readings indicate inhibition by little substance, high ones a need for much substance. As to `O=C(CCCN1CCC(C(=O)Cc2ccc(F)cc2)CC1)c1ccc(F)cc1`, the IC50 in assay [1] was 55 nM.

For the molecule `Cl.Fc1ccc(COCC2CCN(Cc3ccc(Cl)cc3)CC2)cc1`, the IC50 in assay [1] came to 488 nM.

The Ki is the equilibrium dissociation constant of an inhibitor or competing ligand from its target. In assay [2], `Cl.Fc1ccc(COCC2CCN(Cc3ccc4ccccc4c3)CC2)cc1` returned an inhibition constant (Ki) of 4 nM.
